Results on one compound are retold here after publication PMC8905628, “Integrin α6-Targeted Molecular Imaging of Central Nervous System Leukemia in Mice” (Frontiers in Bioengineering and Biotechnology, 2022).

The assay concerns NALM6-luciferase tumor-bearing mice. The assay is described as follows: PET imaging of NALM6-luciferase tumor-bearing mice (CNS-L). Details: species or system NOD/SCID mice. Conditions: mouse, in vivo.

As for `OC[C@H]1OC(O)[C@H](F)[C@@H](O)[C@@H]1O` (some centres unmarked) [^18F-FDG, ^18F-fluorodeoxyglucose], the “distribution of radioactivity in the head” value is listed as “diffuse enhanced radioactivity in the brain tissue” and the tumor-to-background ratio is recorded as 0.58.
